From ChEMBL document CHEMBL1250483, “Three-dimensional quantitative structure-activity relationship CoMSIA/CoMFA and LeapFrog studies on novel series of bicyclo [4.1.0] heptanes derivatives as melanin-concentrating hormone receptor R1 antagonists” (Eur J Med Chem, 2010)

Amino acid sequences for entries named in this document (tags omitted). A change or cut given only in a name is not applied to a line headed by its entry.
UniProt Q99705: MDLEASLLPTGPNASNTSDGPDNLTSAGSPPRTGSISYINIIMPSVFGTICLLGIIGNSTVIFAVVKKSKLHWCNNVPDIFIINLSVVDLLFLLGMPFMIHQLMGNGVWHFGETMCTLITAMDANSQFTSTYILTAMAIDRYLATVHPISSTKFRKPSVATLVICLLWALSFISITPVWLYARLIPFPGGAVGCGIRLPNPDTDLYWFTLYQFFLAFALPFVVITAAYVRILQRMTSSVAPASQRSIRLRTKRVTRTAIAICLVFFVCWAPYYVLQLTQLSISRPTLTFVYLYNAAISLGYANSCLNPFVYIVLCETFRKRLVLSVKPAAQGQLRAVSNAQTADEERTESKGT

Molecular target: Melanin-concentrating hormone receptor 1 (Homo sapiens, UniProt Q99705)
Experiment: Antagonist activity at MCH1 receptor
Format: functional

SMILES	Ki [nM]
N#Cc1cccc([C@]23CCC(N(CCN4CCC[C@H]4CO)C(=O)Nc4ccc(F)c(Cl)c4)CC2C3)c1 (stereo partly drawn)	15
N#Cc1cccc([C@]23CCC(N(CC4CCN(C5CCOCC5)CC4)C(=O)Nc4ccc(F)c(Cl)c4)CC2C3)c1 (stereo partly drawn)	8.71
COC(=O)c1cccc([C@]23CCC(N(CCN(C(C)C)C(C)C)C(=O)Nc4ccc(F)c(F)c4)CC2C3)c1 (stereo partly drawn)	34
